Patent publication US7326685B2, “Diagnostic or therapeutic somatostatin or bombesin analog conjugates and uses thereof” (The Administrators of the Tulane Educational Fund, priority 2001, dated 2008)

Chains of the proteins cited; added tags and fusions are not shown. Lines headed by an entry give the natural chain unless they say otherwise; changes in a name come on top.
UniProt P30680: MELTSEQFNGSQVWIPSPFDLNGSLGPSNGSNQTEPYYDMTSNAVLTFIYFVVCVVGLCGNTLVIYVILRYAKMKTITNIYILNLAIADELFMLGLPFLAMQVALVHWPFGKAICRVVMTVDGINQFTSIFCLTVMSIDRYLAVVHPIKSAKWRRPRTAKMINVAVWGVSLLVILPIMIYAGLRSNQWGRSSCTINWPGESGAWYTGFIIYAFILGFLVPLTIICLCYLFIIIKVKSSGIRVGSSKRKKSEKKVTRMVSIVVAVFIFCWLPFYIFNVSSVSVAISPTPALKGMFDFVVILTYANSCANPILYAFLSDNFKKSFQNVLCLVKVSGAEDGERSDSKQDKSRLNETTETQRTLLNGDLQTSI

Assays:
[1] = target: GH release from primary cultures of rat pituitary cells (somatostatin subtype 2 rat receptor related system) (Rattus norvegicus, UniProt P30680); assay: Inhibition of GH release from primary cultures of rat pituitary cells; type: cell-based; settings: GH stimulated with 1 nM GRH(1-29)NH2, 3 h
Description: This is a primary system for evaluating SRIF analog potency and can be considered a somatostatin subtype 2 rat receptor related system which historically also correlates well with human subtype 2 binding.
Anterior pituitaries from adult male rats weighing 200-250 g and housed under controlled conditions (lights on from 0500-1900 h), are dispersed using aseptic techniques by a trypsin/DNase method. The dispersed cells are diluted with sterile-filtered Dulbecco's modified Eagle medium (MEM) (Gibco Laboratories, Grand Island, N.Y. (GIBCO)), which is supplemented with 2.5% fetal calf serum (GIBCO), 3% horse serum (GIBCO), 10% fresh rat serum (stored on ice for no longer than 1 h) from the pituitary donors, 1% MEM nonessential amino acids (GIBCO), gentamycin (10 ng/ml; Sigma), and nystatin (10,000 U/ml; GIBCO). The cells are counted with a hemacytometer (approximately 2,000,000 cells per pituitary) and randomly plated at a density of 200,000 cells per well (Co-star cluster 24; Rochester Scientific Co., Rochester, N.Y.). […]
In preparation for a hormone challenge, the cells are washed 3× with medium 199 (GIBCO) to remove old medium and floating cells. […] GH in plasma and media is measured by a standard double antibody RIA using components supplied by the NIDDK and the National Hormone and Pituitary Program.

[2] = Biodistribution of 125I-labeled peptides in rats; settings: 125I-labeled peptide, intraperitoneal, 24 hours

Substance: Succinate-D-Asp-D-Ser-D-Ser-D-Ser-D-Ser-D-Ser-D-Asp-D-Ser-D-Ser-D-Ser-D-Ser-D-Ser-L-Lys-D-Tyr-D-Tyr-cyclo[L-Cys-L-Phe-D-Trp-L-Lys-L-Thr-L-Cys]-L-Thr-NH2 [JF-08-73]
- IC50 [1]: 0.51 nM
- Accumulation of radioactivity in normal tissue including liver (FIG. 2) [2]: lack of accumulation
- Elimination of labeled peptide in urine and feces (FIG. 2) [2]: rapid and high efficiency elimination
